Data from patent publication US11654094B2, “Composition comprising benzoic acid amide compound and cyclodextrin solubilizing agent” (AMOREPACIFIC CORPORATION, priority 2017, dated 2023).

Experiment: Solubility of DBAB for each type of cyclodextrin and their 1:1 combinations (amount of CD required)
Type: physicochemical
Conditions: single cyclodextrin or 1:1 weight ratio combination
Experimental: In order to investigate the solubility of one part by weight of DBAB for each type of cyclodextrin and the synergistic effect between cyclodextrins, the solubility of each of α-CD, γ-CD, HP-α-CD, HP-β-CD and HP-γ-CD and the solubility of their 1:1 weight ratio combinations was determined, as shown in Table 4 below. […] From the corresponding combination in Table 4 below, the amount of CD required was verified.

amount of CD required (weight ratio CD:DBAB, x:1) to transparently dissolve one part by weight of DBAB: >20
Compound: OC[C@H]1O[C@@H]2O[C@H]3[C@H](O)[C@@H](O)[C@@H](O[C@H]4[C@H](O)[C@@H](O)[C@@H](O[C@H]5[C@H](O)[C@@H](O)[C@@H](O[C@H]6[C@H](O)[C@@H](O)[C@@H](O[C@H]7[C@H](O)[C@@H](O)[C@@H](O[C@H]8[C@H](O)[C@@H](O)[C@@H](O[C@H]9[C@H](O)[C@@H](O)[C@@H](O[C@H]1[C@H](O)[C@H]2O)O[C@@H]9CO)O[C@@H]8CO)O[C@@H]7CO)O[C@@H]6CO)O[C@@H]5CO)O[C@@H]4CO)O[C@@H]3CO [γ, γ-cyclodextrin]
